{"source": "patent US10639298B2", "about": "(Biohaven Pharmaceutical Holding Company Ltd., priority 2015, dated 2020)", "system": "Melanoma C8161 cells", "assay": "Inhibition of human melanoma cell xenograft growth", "assay_type": "in vivo, nude mice", "conditions": "7.5 mg/kg p.o. gavage every day for 21 days; P<0.01 (t test)", "description": "Melanoma C8161 cells were inoculated s.c. into nude mice at […]. […] Mice were treated every day for 21 days, and tumor sizes were measured twice weekly with a Vernier caliper.", "data": [{"smiles": "Nc1nc2ccc(OC(F)(F)F)cc2s1", "note": "[riluzole]", "values": [{"measurement": "Tumor volume vs untreated or vehicle-treated controls", "value": "significant reduction in tumor volume"}]}]}
